Data set [1] is described as follows: in vivo. Particulars: mouse, po.
The conditions of data set [2]: rat, in vivo.
Where [3] appears, read: LD50, drug alone, emorfazone 0, lethality within 7 days.

In data set [1] (setting [3]), `CCOc1c(N2CCOCC2)cnn(C)c1=O` [Emorfazone, 4-ethoxy-2-methyl-5-morpholino-3(2H)-pyridazinone] gave an LD50 at 168 h of 960 mg/kg.
`Cc1cccc(Nc2ccccc2C(=O)O)c1C` [Mefenamic acid]: the “ulcer index, emorfazone 50 mg/kg” value in data set [2] was determined as 7.3 ± 1.9. In data set [2], the “ulcer index, emorfazone 100 mg/kg” value worked out at 10.2 ± 2.6. Besides, the “ulcer index, emorfazone 0” value in data set [2] (po) is on record as 10.5 ± 2.7 mm. Further, the LD50 at 168 h amounted to 610 mg/kg in data set [1]; 1190 mg/kg in data set [1] (setting [3]); 920 mg/kg in data set [1] (LD50 dose obtained experimentally, with emorfazone 240, p.o., combined with emorfazone 240 mg/kg).

The LD50 is the dose at which mortality reaches 50%.

(Values after US4379148A, “Analgesic and anti-inflammatory composition” (priority 1981, dated 1983).)
